Laboratory results from patent US20190231757A1, “COMBINATION OF SPLEEN TYROSINE KINASE INHIBITORS AND OTHER THERAPEUTIC AGENTS” (Takeda Pharmaceutical Company Limited, priority 2016, published 2019).

Assay: Body weight and tolerability, Ly19 bendamustine study (Example 4)

**Q.** What does the source list for Cn1c(CCCC(=O)O)nc2cc(N(CCCl)CCCl)ccc21 [bendamustine]?
**A.** animal body weight (g), Day 0 (Day 0, bendamustine 2.0 mg/kg IV BIW x2, alone or with Compound A 60 mg/kg PO QD x14): 20.4 g; animal body weight (g), Day 3 (Day 3, bendamustine 2.0 mg/kg, alone or with Compound A 60 mg/kg): 20.8 g; animal body weight (g), Day 7 (Compound A 60 mg/kg, bendamustine 1.0 mg/kg, alone or combined): 20.4 g; animal body weight (g), Day 7 (bendamustine 2.0 mg/kg, alone or with Compound A 60 mg/kg): 21.1 g
